This note sets out measurements from ChEMBL document CHEMBL5344485, “Discovery of CRN04894: A Novel Potent Selective MC2R Antagonist” (ACS Med Chem Lett, 2024).

Amino acid sequences for entries named in this document (tags omitted). A change or cut given only in a name is not applied to a line headed by its entry.
UniProt Q01718: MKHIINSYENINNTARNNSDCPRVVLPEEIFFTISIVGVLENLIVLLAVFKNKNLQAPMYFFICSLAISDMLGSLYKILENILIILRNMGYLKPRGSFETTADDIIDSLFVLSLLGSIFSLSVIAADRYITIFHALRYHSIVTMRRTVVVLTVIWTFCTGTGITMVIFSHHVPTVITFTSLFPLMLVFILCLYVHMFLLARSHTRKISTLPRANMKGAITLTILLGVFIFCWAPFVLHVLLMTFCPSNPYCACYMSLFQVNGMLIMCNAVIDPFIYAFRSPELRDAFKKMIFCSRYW

Series [1] deals with Adrenocorticotropic hormone receptor (Homo sapiens, UniProt Q01718). The following applies: CHO-K1, Membrane, filed as antagonist, time 60.0 min.
Series [2] relates to CHO-K1. The following applies: Rattus norvegicus, Membrane, filed as antagonist, time 60.0 min.
The subject of series [3] is CHO-K1. The following applies: Canis lupus familiaris, Membrane, filed as antagonist, time 30.0 min.
A short description of series [4]: in vivo. The note with it: rat, po, 10 mg/kg.
Series [5] in a line: in vivo. The note with it: rat, po, 10 mg/kg. The source holds these as a separate data set.
Series [6] can be described thus: in vitro. The following applies: human, liver microsomes. A general note: Microsomes from liver hold many membrane-bound enzymes, among them those of drug oxidation.
The nature of series [7]: in vitro. The note with it: rat, liver microsomes.

What is called pKb is the Kb on a negative log10 scale, so that one unit is a factor of ten. In series [1], `CC1CN(C(=O)c2ccc(Cl)cc2Cl)CCN1c1ccc(C(F)(F)F)cc1CN` (centres undefined) had a negative-log Kb (pKb) of 6.4.
The same measure, in the same setting: as for `CCOc1ncccc1-c1ccc(N2CCN(C(=O)C3(C(F)(F)F)CCCC3)C[C@H]2CC)c(C(=O)N[C@@H]2CCN(C)C2)n1`, the figure is 8.9; as for `C[C@@H]1CN(C(=O)c2ccc(C(F)(F)F)cc2Cl)CCN1c1ccc(C(F)(F)F)cc1CN`, 6.5.
The same measure, in the same setting: for `CC[C@@H]1CN(C(=O)c2ccc(C(F)(F)F)cc2Cl)CCN1c1ccc(C(F)(F)F)cc1CN` the value was 7.7.
In the case of `CCOc1ccccc1-c1ccc(N2CCN(C(=O)C3(C(F)(F)F)CCC3)C[C@H]2CC)c(C(=O)N[C@@H]2CN3CCC2CC3)n1` [ATUMELNANT], the pKb stood at 9.5 in series [1], 9.6 in series [2] and 9.6 in series [3].
On to `CC[C@@H]1CN(C(=O)c2ccc(C(F)(F)F)cc2Cl)CCN1c1ccc(C(F)(F)F)cc1C(=O)NCCN`, for which the pKb turned out to be 7.6 in series [1] and 7.1 in series [2].
The matching figures for `CC[C@@H]1CN(C(=O)c2ccc(C(F)(F)F)cc2Cl)CCN1c1ccc(C(F)(F)F)cc1CNC[C@H](C)O`: 7.6 and 6.6.
Take `CCOc1ccccc1-c1ccc(N2CCN(C(=O)C3(C(F)(F)F)CCC3)C[C@H]2CC)c(C(=O)N[C@@H]2CCN(C)C2)n1`: the pKb in series [1] amounted to 8.8.
`CC1CN(c2ccc(C(F)(F)F)cc2CN)CCN1C(=O)c1ccc(Cl)cc1Cl` (centres undefined): in series [1], the pKb was 6.1.
For orientation: half-life means the time in which the quantity being followed falls by half. As usually defined, the AUC(0-t) is the area under the concentration-time curve up to a stated or last time point. Read a high AUC(0-t) as high exposure. Turning to `CCOc1ncccc1-c1ccc(N2CCN(C(=O)c3ccc(Cl)cc3C(F)(F)F)C[C@H]2CC)c(C(=O)NCCNC)n1`, the values for the half-life in series [4], in series [6] and in series [7] were 2.7 h, above 11.6 h and 3.85 h, respectively. The AUC(0-t) in series [5] came out at 0.334 µM·h.
In the case of `CCOc1ncccc1-c1ccc(N2CCN(C(=O)C34CCC(C(F)(F)F)(CC3)CC4)C[C@H]2CC)c(C(=O)N[C@@H]2CCN(C)C2)n1`, in series [1], the pKb was 9.5.
On the same count and under the same terms, for `CCOc1ncccc1-c1ccc(N2CCN(C(=O)C3(C(F)(F)F)CCC3)C[C@H]2CC)c(C(=O)N[C@@H]2CCN(C)C2)n1` the value was 8.9.
